System: HEK293T cells
Assay: MTT viability assay
Format: cell-based, human
Conditions: drug doses 1 to 100 µM, 16 h, normalized to 1% DMSO

## Oc1c(Cl)cc(Cl)c(Cl)c1Cc1c(O)c(Cl)cc(Cl)c1Cl [Hexachlorophene, reference compound]
  viability (MTT): increased MTT absorbance

Source: publication PMC8119466, “A screen of FDA-approved drugs identifies inhibitors of protein tyrosine phosphatase 4A3 (PTP4A3 or PRL-3)” (Scientific Reports, 2021)
